Values quoted from earlier work in PubChem BioAssay AID977608 (Shanghai Institute of Organic Chemistry, 2014).

Tests used:
Test in all cases: protein-ligand inhibition affinities from structures – PDB-derived complexes (AID 977608)
[1] = target: DUAL SPECIFICITY MITOGEN-ACTIVATED PROTEIN KINASE KINASE 1, human MEK1; details: literature IC50, protein: DUAL SPECIFICITY MITOGEN-ACTIVATED PROTEIN KINASE KINASE 1, human MEK1, chain 4AN2_A, PDB entry 4AN2
[2] = target: serine/threonine-protein kinase 6
[3] = target: cell division protein kinase 2
[4] = target: heat shock protein 90 alpha; details: literature IC50, protein: heat shock protein 90 alpha
[5] = target: thrombin light chain; details: literature IC50, protein: thrombin light chain, chain 1WAY_B, PDB entry 1WAY
[6] = target: acetylcholinesterase; details: literature IC50, protein: acetylcholinesterase
[7] = target: phosphatidylinositol 3-kinase (PI3K), p110alpha; details: literature IC50, protein: phosphatidylinositol 3-kinase (PI3K), p110alpha, PDB entry 4l23
[8] = target: adenylate cyclase; details: literature IC50, protein: adenylate cyclase, chain 2BW7_A,2BW7_B, PDB entry 2BW7
[9] = target: Cationic trypsin; details: literature IC50, protein: Cationic trypsin
[10] = target: collagenase 3 (mmp-13); details: literature IC50, protein: collagenase 3 (mmp-13), chain 1YOU_A, PDB entry 1YOU
[11] = target: Vascular endothelial growth factor receptor 2, VEGFR2 kinase domain; details: literature IC50, protein: Vascular endothelial growth factor receptor 2, VEGFR2 kinase domain, chain 3VID_A, PDB entry 3VID
[12] = target: Tankyrase-1; details: literature IC50, protein: Tankyrase-1, PDB entry 4n4v
[13] = target: glycogen synthase kinase-3 beta; details: literature IC50, protein: glycogen synthase kinase-3 beta, chain 1UV5_A, PDB entry 1UV5
[14] = target: Glr4197 protein?GLIC; details: literature IC50, protein: Glr4197 protein?GLIC, chain 3P50_A, PDB entry 3P50
[15] = target: Proto-oncogene tyrosine-protein kinase Src; details: literature IC50, protein: Proto-oncogene tyrosine-protein kinase Src, chain 3EL8_A, PDB entry 3EL8
[16] = target: TYROSINE-PROTEIN KINASE JAK2; details: literature IC50, protein: TYROSINE-PROTEIN KINASE JAK2, chain 2XA4_A, PDB entry 2XA4
[17] = target: hiv-1 protease; details: literature IC50, protein: hiv-1 protease, chain 4PHV_A,4PHV_B, PDB entry 4PHV
[18] = target: 3-phosphoinositide dependent protein kinase 1
[19] = target: HIV-1 IN core domain; details: literature IC50, protein: HIV-1 IN core domain, chain 3LPU_A, PDB entry 3LPU
[20] = target: HCV NS5B polymerase; details: literature IC50, protein: HCV NS5B polymerase, PDB entry 4gmc
[21] = target: LYSINE-SPECIFIC DEMETHYLASE 4A, JMJD2A; details: literature IC50, protein: LYSINE-SPECIFIC DEMETHYLASE 4A, JMJD2A, PDB entry 4bis
[22] = target: Renin; details: literature IC50, protein: Renin, chain 3Q4B_A, PDB entry 3Q4B
[23] = target: human tankyrase 2; details: literature IC50, protein: human tankyrase 2, PDB entry 4bjc
[24] = target: TANKYRASE-2; details: literature IC50, protein: TANKYRASE-2, PDB entry 4avu
[25] = target: catalytic domain of PDE10A; details: literature IC50, protein: catalytic domain of PDE10A, PDB entry 3wym
[26] = target: Macrophage metalloelastase; details: literature IC50, protein: Macrophage metalloelastase, chain 2W0D_A, PDB entry 2W0D

In the case of `O=C(c1ccc(F)c(F)c1Nc1ccc(I)cc1F)N1CC(O)([C@@H]2CCCCN2)C1`, the IC50 [1] is listed as 0.0009 µM.

In the case of `CO[C@@H](C(=O)N1Cc2[nH]nc(NC(=O)c3ccc(N4CCN(C)CC4)cc3)c2C1)c1ccccc1`, the IC50 ([2]; literature IC50, protein: serine/threonine-protein kinase 6, chain 2J50_A, PDB entry 2J50) is listed as 0.013 µM.

For `Cc1nc(C)c(-c2ccnc(N)n2)s1`, the IC50 ([3]; literature IC50, protein: cell division protein kinase 2, chain 2C5O_A, PDB entry 2C5O) is listed as 6.5 µM.

In the case of `CS(=O)(=O)c1ccc(CN2CCN(c3cn[nH]c3-c3cc(Cl)c(O)cc3O)CC2)cc1`, the IC50 ([4]; chain 2CCU_A, PDB entry 2CCU) is given as 0.74 µM.

For `Clc1cccc(Nc2nc(OCC3CCCCC3)c3[nH]cnc3n2)c1`, the IC50 ([3]; literature IC50, protein: cell division protein kinase 2, chain 1H1R_A, PDB entry 1H1R) is listed as 2.3 µM.

In the case of `Clc1ccc(-c2cc(C3CCNCC3)[nH]n2)cc1`, the IC50 [5] is listed as 400 µM.

For `COc1ccc2c3c1O[C@H]1C[C@@H](O)C=C[C@@]31CC[N+](CCCCCCCCN1C(=O)c3ccccc3C1=O)=C2`, the IC50 ([6]; chain 1W4L_A, PDB entry 1W4L) is given as 0.004 µM.

For `Oc1cccc(-c2nc(N3CCOCC3)c3oc4ncccc4c3n2)c1`, the IC50 [7] is given as 0.0179 µM.

In the case of `C[C@]12CC[C@@H]3c4cc(O)c(O)cc4CC[C@H]3[C@@H]1CC[C@@H]2O`, the IC50 [8] is given as 2 µM.

For `NCCc1c[nH]c2ccccc12`, the IC50 ([9]; chain 3ATM_A, PDB entry 3ATM) is given as 873 µM and the IC50 ([9]; chain 3RXI_A, PDB entry 3RXI) is given as 873 µM.

For `CCOCCC1(Oc2ccc(Oc3ccc(F)cc3)cc2)C(=O)NC(=O)NC1=O`, the IC50 [10] is listed as 0.00087 µM.

For `c1ccc2c3c([nH]c2c1)-c1[nH]ncc1CCC3`, the IC50 [11] is listed as 0.62 µM.

In the case of `CC1(C)OC(=O)N(C2CCC(c3cnc(N)c(-c4ncccn4)c3)CC2)[C@H]1c1ccccc1` (stereo partly specified), the IC50 [12] is given as 0.002 µM.

In the case of `O=Nc1c(-c2c(O)[nH]c3cc(Br)ccc23)[nH]c2ccccc12`, the IC50 [13] is given as 0.005 µM.

For `CC(C)c1cccc(C(C)C)c1O`, the IC50 [14] is listed as 24 µM.

For `CN(C)C[C@@H](O)COc1ccc(Nc2ncc(Br)c(Nc3ccccc3)n2)cc1`, the IC50 ([3]; literature IC50, protein: cell division protein kinase 2, chain 1H08_A, PDB entry 1H08) is given as 28 µM.

For `CC(C)n1nc(-c2ccc(NC(=O)Nc3cccc(C(F)(F)F)c3)cc2)c2c(N)ncnc21`, the IC50 [15] is listed as 0.025 µM.

In the case of `CC(=O)N[C@@H](CCCN=C(N)N)C(=O)N[C@@H](CCCN=C(N)N)C(=O)N[C@@H](CC(C)C)C(=O)N[C@@H](CC(N)=O)C(=O)N[C@@H](Cc1cccc(Cl)c1)C(N)=O`, the IC50 ([3]; literature IC50, protein: cell division protein kinase 2, chain 1OKW_B, PDB entry 1OKW) is given as 5.6 µM.

In the case of `Cc1cc(Nc2nc(N[C@@H](C)c3ncc(F)cn3)ncc2Cl)n[nH]1`, the IC50 [16] is given as 0.003 µM.

In the case of `O=C(N[C@H]1c2ccccc2C[C@H]1O)[C@H](Cc1ccccc1)CC(O)C[C@@H](Cc1ccccc1)C(=O)N[C@H]1c2ccccc2C[C@H]1O`, the IC50 [17] is listed as 0.00067 µM.

For `Cn1cc(C2=C(c3cn(CCCN)c4ccccc34)C(=O)NC2=O)c2ccccc21`, the IC50 ([18]; literature IC50, protein: 3-phosphoinositide dependent protein kinase 1, chain 1UVR_A, PDB entry 1UVR) is given as 1 µM.

For `CC(C)C[C@H](NC(=O)[C@H](CCCN=C(N)N)NC(=O)[C@@H](N)CCCN=C(N)N)C(=O)N[C@@H](CC(N)=O)C(=O)N[C@@H](Cc1ccc(F)cc1)C(N)=O`, the IC50 ([3]; literature IC50, protein: cell division protein kinase 2, chain 1OL2_B, PDB entry 1OL2) is listed as 0.53 µM.

For `Nc1ccncc1`, the IC50 ([9]; chain 3RXF_A, PDB entry 3RXF) is listed as 2500 µM.

For `c1ccc2c(NCCCCCNc3c4c(nc5ccccc35)CCCC4)c3c(nc2c1)CCCC3`, the IC50 ([6]; chain 2CMF_A, PDB entry 2CMF) is given as 0.028 µM.

For `CCC[C@H](C(=O)O)c1c(C)nc2ccc(Cl)cc2c1-c1ccccc1`, the IC50 [19] is given as 1.37 µM.

In the case of `O=C(NS(=O)(=O)c1ccccc1)c1ccc2c(C3CCCCC3)c(-c3ccoc3)n(CC(=O)N3CCOCC3)c2c1`, the IC50 [20] is listed as 0.018 µM.

In the case of `O=C(O)c1ccnc2c(O)cccc12`, the IC50 [21] is given as 1.4 µM.

For `CN[C@H](CNC(=O)N1CCC[C@@H]([C@@H](OCCNC(=O)OC)c2cccc(Cl)c2)C1)C[C@H]1CCCOC1`, the IC50 [22] is given as 0.00047 µM.

In the case of `CNCc1ccc(-c2[nH]c3cc(F)cc4c3c2CCNC4=O)cc1`, the IC50 [23] is listed as 0.014 µM.

In the case of `CN[C@@H]1C[C@H]2O[C@@](C)([C@@H]1OC)n1c3ccccc3c3c4c(c5c6ccccc6n2c5c31)C(=O)N[C@@H]4O`, the IC50 ([18]; literature IC50, protein: 3-phosphoinositide dependent protein kinase 1, chain 1OKZ_A, PDB entry 1OKZ) is listed as 0.005 µM.

In the case of `NS(=O)(=O)c1cccc(Nc2nc(OCC3CCCCC3)c3[nH]cnc3n2)c1`, the IC50 ([3]; literature IC50, protein: cell division protein kinase 2, chain 1OIU_A, PDB entry 1OIU) is given as 0.21 µM.

In the case of `Cc1nc(N)sc1-c1ccnc(Nc2ccc(N3CCOCC3)cc2)n1`, the IC50 ([3]; literature IC50, protein: cell division protein kinase 2, chain 2UUE_A, PDB entry 2UUE) is listed as 0.74 µM.

In the case of `O=c1[nH]c2ccccc2c2ccccc12`, the IC50 [24] is listed as 0.014 µM.

In the case of `CN1CCN(c2ccc(C(=O)Nc3n[nH]c4c3CN(C(=O)Cc3cccs3)C4)cc2)CC1`, the IC50 ([2]; literature IC50, protein: serine/threonine-protein kinase 6, chain 2J4Z_A, PDB entry 2J4Z) is listed as 0.065 µM.

In the case of `CC(=O)N[C@@H](CCCN=C(N)N)C(=O)N[C@H]1CCCCNC(=O)CNC(=O)[C@H](Cc2ccccc2)NC(=O)[C@H](CC(C)C)NC1=O`, the IC50 ([3]; literature IC50, protein: cell division protein kinase 2, chain 1URC_B, PDB entry 1URC) is listed as 19.2 µM.

For `NC1CCC(O)CC1` (stereo unspecified), the IC50 ([9]; chain 3RXG_A, PDB entry 3RXG) is listed as 7100 µM.

In the case of `COc1cn(-c2ccc(-n3cccn3)cc2F)nc(-c2ccnn2-c2ccccc2)c1=O`, the IC50 [25] is listed as 0.0003 µM.

For `O=S(=O)(Nc1ccc(O)c(-c2c(O)ccc3ccccc23)c1)c1cc(Cl)ccc1Cl`, the IC50 ([4]; chain 2BZ5_A, PDB entry 2BZ5) is given as 0.7 µM.

In the case of `COc1ccc(S(=O)(=O)N(Cc2cccnc2)[C@@H](C(=O)NO)C(C)C)cc1`, the IC50 [26] is listed as 0.002 µM.

In the case of `NCCc1cnc[nH]1`, the IC50 ([9]; chain 3RXH_A, PDB entry 3RXH) is given as 15700 µM.
